Assay results from patent US6500430B1, “Product and process to regulate actin polymerization in T lymphocytes” (National Jewish Medical and Research Center, priority 1995, dated 2002).

Test system: TCR-ζ
Test: Cell-free association of TCR-ζ with the actin cytoskeleton (detergent soluble lysate, newly polymerized pellet)
Format: biochemical, murine
Description: Freshly isolated murine thymocytes or lymph node T cells, or CD25/ζ-expressing T cell hybridomas, were washed 3 times in BSS and incubated in the presence or absence of cytochalasin D for 1.5 hrs at 4° C., solubilized with 0.5% NP-40 in a Tris buffered saline solution (TBS; 150 mM NaCl, 10 mM Tris, pH 7.3) containing protease and phosphatase inhibitors (0.2 mM VO3, 10 mM NaF, 1 mM PMSF, and 1 mg/ml each of Aprotinin, Leupeptin, and α-l-antitrypsin) and centrifuged at 10,000 rpm for 10 min to pellet the insoluble material. […] To increase actin polymerization, the Mg^2+ concentration was increased to 2 mM. […] Immunoprecipitation of the detergent soluble fraction with anti-TCR-ζ antibody was then performed as described in Example 4. The pellet and the anti-TCR-ζ immunoprecipitate were resolved by SDS-PAGE gel electrophoresis and immunoblotted with anti-TCR-ζ antibody.

## MgATP
MgATP concentrations below 0.1 mM
  TCR-ζ binding to the pellet: Almost no binding
Exogenous MgATP
  Time of incubation until association and depletion of TCR-ζ from solution was detected: ≤ 1 min
Time course experiments, 37° C.
  Time of optimal association of TCR-ζ with the pellet: 10 to 15 min
